Test results taken from US20100130604A1, “USE OF ROSMARINIC ACID IN MANUFACTURE OF MEDICAMENTS FOR TREATING OR PREVENTING HEPATIC AND RENAL DISEASES” (SHANGDONG LUYE NATURAL DRUG RESEARCH AND DEVELOPMENT CO., …, priority 2006, published 2010).

Test system: hepatofibrosis in rats
Assay: CCl4-induced hepatofibrosis in chronic hepatitis in rats
Format: in vivo, Sprague Dawley rats
Conditions: serum; 8 mg/kg, 6 weeks
Description: 120 rats were randomly divided into 12 groups, with 10 in each group, namely, a normal control group, a model group, […] Apart from the normal control group, all rats were s.c. injected 0.3 ml of 40% solution of CC14 in oil per 100 g of body weight once every 3 days for 6 weeks. Animals in the normal control group were s.c. injected 0.3 ml/100 g body weight of oil vehicle following the same schedule as the experimental groups. First dose was doubled for all animals. Six weeks later, drugs were continuously administered to animals in each group for 6 weeks. After the administration was completed, all animals were anaesthetised with i.p. injection of 20% ethyl carbamate solution (Beijing Tongxian District Yucai Fine Chemicals). Blood was collected from abdominal aorta. Hepatic lobule tissue was removed, part of which was fixed with 10% neutral foinialin solution and made into wax blocks within 24-48 hours. […] Serum HA, LN, Pc III levels and hepatic HYP level were determined according to the respective kit instructions.

`CN(CCOc1ccc(CC2SC(=O)NC2=O)cc1)c1ccccn1` (stereo not drawn) [Rosiglitazone, reference compound] gave an HA of 88.9 ± 20.5 µg/L, an LN of 63.6 ± 16.8 µg/L and a PCIII of 26.5 ± 9.6 µg/L.
